Assay: Pharmacokinetics and tissue distribution in B16-F1 pigmented melanoma bearing mice
Assay type: in vivo, C57/BL6 mice
Conditions: tumour versus skin
Method: (§1) FIG. 4: Time-dependence of boronated phthalocyanine (B4Pc) recovery from plasma and selected tissues of B16-F1 pigmented melanoma bearing C57/BL6 mice (4A) as well as from tumour and skin (4B), after intravenous administration of 0.75 mg/Kg of boronated phthalocyanine according to Example 21 as DPPC liposomal preparation.
as §1, with “5:” for “4:”, “(5A),” for “(4A)”, “(5B)” for “(4B),”, “iv” for “intravenous”, “3.0” for “0.75”, “DOPC” for “DPPC”
Through pharmacokinetic experiments on B16-F1 pigmented melanoma bearing mice, a number of studies such as tissue affinity, uptake kinetics on various organs, clearance from the body and selectivity for the tumour tissues have been evaluated, using the product described in Example 21. Toward this aim, once tumours had reached the volumes of […], the boronated phthalocyanine as DPPC liposomal preparation (0.75 mg/kg) or as a DOPC liposomal preparation (3 mg/kg) was systemically administered. […]

## 1,8(11),15(18),22(25)-tetrakis-{[4-(^11B-o-carboran-1-yl)methyl]phenoxy}-phthalocyaninate zinc(II) [Example 21]
  selectivity of localization in the tumour: acceptable
